Results from paper PMC8880132 (Molecules, 2022).

Assay: Pharmacokinetic drug-drug interaction study in rats after oral administration
Type: in vivo, SD (Sprague-Dawley) rats
Conditions: rat plasma, TEL 4 mg/kg oral, alone
Protocol: SPF (specific pathogen free)-grade male SD (Sprague-Dawley) rats (weight: 230 ± 10 g) were purchased from Beijing Weitong Lihua Experimental Animal Technology Co. Ltd. (Beijing, China). Before starting the experiment, the rats were given sufficient food and water and kept under suitable conditions for one week. Suitable conditions included suitable temperature (23–27 °C), suitable humidity (50 ± 10%), and 12-h light–12-h dark diurnal cycle. All animals were fasted for 12 h before the start of the experiment, but they were allowed to drink water freely. All the animal experimental protocols were conducted in accordance with the UK Animals (Scientific Procedures) Act 1986 and under the guideline approved by the Ethics Committee of Hebei General Hospital (Shijiazhuang, China; No. 2021131).
Twenty-four healthy rats were randomly and equally divided into four groups (six animals in each group). […] Approximately 0.3 mL of blood was collected from the orbital venous plexus in a heparinized centrifuge tube from each rat at 0.25, 0.5, 1, 2, 3, 4, 6, 8, 10, 12, 24, 48, 72, and 96 h after administration. […]
The main pharmacokinetic parameters are presented as mean ± standard deviation and statistically analyzed using SPSS 25.0 software package (SPSS Inc., Chicago, IL, USA). […]

## CCCc1nc2c(C)cc(-c3nc4ccccc4n3C)cc2n1Cc1ccc(-c2ccccc2C(=O)O)cc1 [TEL, Telmisartan]
  Vz: 13.49 ± 3.97 L/kg
